Values quoted from earlier work, collected in patent publication US20230349886A1, “SYSTEMS AND METHODS FOR PREDICTING CARDIOTOXICITY OF MOLECULAR PARAMETERS OF A COMPOUND BASED ON MACHINE LEARNING ALGORITHMS” (UTI Limited Partnership, priority 2015, published 2023).
Where two headings read alike, the source gives them in different places.

By UniProt entry, the sequences of proteins in these tests, tags left out. Where a name states a change or a piece, a line headed by the entry shows the natural chain unless it says otherwise.
UniProt Q12809: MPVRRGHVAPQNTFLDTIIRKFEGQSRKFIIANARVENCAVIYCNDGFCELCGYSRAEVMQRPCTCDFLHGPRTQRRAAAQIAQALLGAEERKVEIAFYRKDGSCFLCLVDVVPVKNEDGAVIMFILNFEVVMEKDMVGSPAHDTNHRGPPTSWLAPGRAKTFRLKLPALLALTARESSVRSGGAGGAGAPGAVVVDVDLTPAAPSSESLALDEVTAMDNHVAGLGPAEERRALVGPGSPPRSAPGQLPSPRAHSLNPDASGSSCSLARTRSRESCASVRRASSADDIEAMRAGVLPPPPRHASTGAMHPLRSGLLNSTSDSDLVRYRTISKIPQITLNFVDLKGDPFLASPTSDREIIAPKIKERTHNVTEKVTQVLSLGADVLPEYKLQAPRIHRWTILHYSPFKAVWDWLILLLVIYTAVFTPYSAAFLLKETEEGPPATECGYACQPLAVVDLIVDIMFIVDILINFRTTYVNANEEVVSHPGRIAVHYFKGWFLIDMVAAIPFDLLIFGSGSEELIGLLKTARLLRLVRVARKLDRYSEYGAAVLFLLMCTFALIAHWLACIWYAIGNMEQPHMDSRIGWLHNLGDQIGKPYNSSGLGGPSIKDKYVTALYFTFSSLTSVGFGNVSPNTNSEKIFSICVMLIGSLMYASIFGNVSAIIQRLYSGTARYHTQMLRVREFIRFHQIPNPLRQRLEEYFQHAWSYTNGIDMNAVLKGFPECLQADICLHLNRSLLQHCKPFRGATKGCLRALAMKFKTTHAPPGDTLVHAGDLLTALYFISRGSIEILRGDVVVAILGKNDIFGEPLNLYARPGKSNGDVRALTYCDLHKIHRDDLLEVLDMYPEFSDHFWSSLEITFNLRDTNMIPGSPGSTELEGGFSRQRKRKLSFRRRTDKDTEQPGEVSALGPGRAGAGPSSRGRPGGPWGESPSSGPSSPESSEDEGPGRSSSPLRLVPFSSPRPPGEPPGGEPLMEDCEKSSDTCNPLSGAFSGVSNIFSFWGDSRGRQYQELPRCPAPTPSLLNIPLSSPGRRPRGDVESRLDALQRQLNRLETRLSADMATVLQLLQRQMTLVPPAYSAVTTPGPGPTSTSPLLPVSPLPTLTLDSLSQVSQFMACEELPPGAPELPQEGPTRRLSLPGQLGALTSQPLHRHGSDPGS

Molecular target: hERG (Homo sapiens, UniProt Q12809)
Throughout, for HERG maxInhib: test concentration or dose not given here.

Compound	HERG maxInhib	HERG maxInhib (Brown dataset)	HERG pIC50 (Brown dataset)	pIC50 (Table 11, calculated from HERG-IC50 of the Kramer et al. 2013 data)	IC50 (read-out: HERG IC50, Brown dataset) [nM]
COc1cc(N)c(Cl)cc1C(=O)NC1CCN(CCCOc2ccc(F)cc2)CC1OC (centres unmarked) [cisapride]	82.1				
Cc1cn(-c2cc(NC(=O)c3ccc(C)c(Nc4nccc(-c5cccnc5)n4)c3)cc(C(F)(F)F)c2)cn1 [nilotinib]		68.2	6	6	1000
